# Assays:
# CA II = settings: ex vitro purified CA II, published values; reference number not given; read-out: Reported values CA II; cited from earlier work
# [1] = molecular target: CA IX on live Ramos B cells (Homo sapiens, UniProt Q16790); test: SPRM kinetic titration of small molecules on live Ramos B suspension cells (1:1 kinetic model, 600 ROIs)
smiles,measurement,setting,value
"NS(=O)(=O)c1ccc(C(=O)O)cc1 [4-CBS, 4-Carboxybenzenesulfonamide]",Kd,CA II,893 nM
same,"k a, SPRM results for CA IX",[1],1.10 × 10^03 M^–1 s^–1
same,"kd, SPRM results for CA IX",[1],1.19 × 10^–03 s^–1

# Source: PMC12794078, “Real-Time Binding Kinetics of Small Molecules to CA IX in Live Suspension Cells Using SPR Microscopy” (ACS Medicinal Chemistry Letters, 2025)
